Experimental data from patent US6399316B1, “PACAP receptor protein, method for preparing said protein, and use thereof” (Takeda Chemical Industries, Ltd., priority 1994, dated 2002).

Tests used:
[1] = target: T1, rat PACAP receptor protein Type I-B (pRPR4-B) (Rattus norvegicus, UniProt P32215); assay: Intracellular cyclic AMP of rat PACAP receptor cDNA-introduced CHO cells, strain B17; type: cell-based; details: CHO strain B17, 37° C., 40 minutes, 0.5 mM IBMX, FIG. 43
T1 construct: two kinds of complete primary structures of rat PACAP receptor protein were deduced; expressed in transfected cells; host or cells: CHO cells, pRPR4-B (pRc/CMV); clone B17 for cAMP
T1 sequence (P32215 20-495 isoform P32215-2 limits assumed): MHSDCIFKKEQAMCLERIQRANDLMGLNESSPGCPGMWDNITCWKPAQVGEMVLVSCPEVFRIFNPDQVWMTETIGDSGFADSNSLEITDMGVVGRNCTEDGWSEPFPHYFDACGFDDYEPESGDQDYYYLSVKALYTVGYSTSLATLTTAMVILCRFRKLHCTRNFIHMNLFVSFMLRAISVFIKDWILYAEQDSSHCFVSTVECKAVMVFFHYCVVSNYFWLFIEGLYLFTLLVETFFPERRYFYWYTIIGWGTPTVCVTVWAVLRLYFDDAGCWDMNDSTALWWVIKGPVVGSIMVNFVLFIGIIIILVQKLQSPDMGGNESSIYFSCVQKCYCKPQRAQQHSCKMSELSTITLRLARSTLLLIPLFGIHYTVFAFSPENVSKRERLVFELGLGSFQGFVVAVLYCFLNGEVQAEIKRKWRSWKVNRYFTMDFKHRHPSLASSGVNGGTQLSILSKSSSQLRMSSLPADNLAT
Method: (§1) From the binding experiment with [^125I]-PACAP27 of (3) described above, using CHO strains A12 and B17 highly producing rat PACAP receptor protein, the production promotion of intracellular cyclic AMP with PACAPs was detected in the following manner. Each 48-well plate for tissue culture was inoculated with each of the cell strains. at a density of 1.0×10^5 cells/well, followed by cultivation for 3 days. The plate was washed twice with Ham's F12 medium supplemented with 0.1% BSA and 0.5 mM IBMX, and 500 μl/well of the same medium was added thereto. PACAP27, PACAP38 or VIP having each concentration was added thereto in a 1/100 amount, followed by standing at 37° C. for 40 minutes. The supernatant was removed, and extraction was conducted with 100% cold ethanol. The extract was evaporated to dryness with a centrifugal freeze dryer, and redissolved in the buffer attached to an EIA kit for assaying cyclic AMP (Amersham). Then, the amount of cyclic AMP was assayed according to the formulation of the kit.

[2] = target: T2, purified bovine PACAP receptor protein (Bos taurus, UniProt Q29627); assay: Competitive binding experiment for the purified PACAP receptor protein with [125I]PACAP27; details: vs 100 pM [125I]PACAP27, FIG. 31
T2 construct: from tissue; host or cells: bovine cerebrum
T2 sequence (Q29627 38-513): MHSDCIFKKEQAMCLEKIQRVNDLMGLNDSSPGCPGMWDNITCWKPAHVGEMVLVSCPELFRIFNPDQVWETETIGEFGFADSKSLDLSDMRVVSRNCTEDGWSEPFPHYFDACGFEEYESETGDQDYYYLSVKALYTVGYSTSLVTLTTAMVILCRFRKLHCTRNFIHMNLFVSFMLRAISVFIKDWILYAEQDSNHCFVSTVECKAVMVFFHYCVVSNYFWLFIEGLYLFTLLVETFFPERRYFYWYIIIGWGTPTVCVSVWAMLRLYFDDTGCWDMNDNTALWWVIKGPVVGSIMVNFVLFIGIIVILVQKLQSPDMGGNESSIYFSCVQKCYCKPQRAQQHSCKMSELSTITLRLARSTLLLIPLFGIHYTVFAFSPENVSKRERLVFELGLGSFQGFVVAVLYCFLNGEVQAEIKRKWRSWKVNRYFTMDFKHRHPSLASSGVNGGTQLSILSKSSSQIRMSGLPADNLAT
Method: (§2) The test sample (membrane fraction or solubilized membrane protein fraction) was appropriately diluted with buffer D (20 mM Tris, 5 mM magnesium chloride, 0.1% BSA and 0.05% digitonin, pH 7.4). […] To 0.1 ml of this reaction solution, 1.5 ml of buffer E (0.1% BSA, 0.05% CHAPS, 20 mM Tris and 5 mM magnesium chloride, pH 7.4) cooled with ice was added, and immediately, the mixed solution is filtered through a glass fiber filter. […] Results of the saturation binding experiment were subjected to Scatchard plot analysis to determine the dissociation constant and the maximum binding.
Analysis results obtained by polyacrylamide electrophoresis for the final purified sample in the presence of sodium dodecylsulfate are shown in FIG. 28. […] This protein having a molecular weight of about 57,000 is the PACAP receptor protein occurring in the bovine cerebrums.

[3] = target: T3, Bovine PACAP receptor protein (Bos taurus, UniProt Q29627); assay: Intracellular cyclic AMP production of bovine PACAP receptor cDNA-expressed CHO cells; type: cell-based; details: 37° C., 30 minutes, 0.2 mM 3-isobutyl-1-methylxanthine, FIG. 36
T3 construct: The complete primary structure of bovine PACAP receptor protein based on pBPR-T was deduced; expressed in transfected cells; host or cells: CHO cells, pBPR-T in pRc/CMV, G-418 selected
T3 sequence (Q29627 38-513): T2 sequence (Q29627 38-513)

[4] = target: T4, human PACAP receptor protein (Homo sapiens, UniProt P41586); assay: Competitive inhibition experiment, membrane fraction of human PACAP receptor-expressed CHO-K1 cells; type: binding; details: FIG. 47
T4 construct: expressed in transfected cells; host or cells: CHO-K1 cells (ICN), pTS849 (pRc/CMV), G-418 selected
T4 sequence (P41586 21-468): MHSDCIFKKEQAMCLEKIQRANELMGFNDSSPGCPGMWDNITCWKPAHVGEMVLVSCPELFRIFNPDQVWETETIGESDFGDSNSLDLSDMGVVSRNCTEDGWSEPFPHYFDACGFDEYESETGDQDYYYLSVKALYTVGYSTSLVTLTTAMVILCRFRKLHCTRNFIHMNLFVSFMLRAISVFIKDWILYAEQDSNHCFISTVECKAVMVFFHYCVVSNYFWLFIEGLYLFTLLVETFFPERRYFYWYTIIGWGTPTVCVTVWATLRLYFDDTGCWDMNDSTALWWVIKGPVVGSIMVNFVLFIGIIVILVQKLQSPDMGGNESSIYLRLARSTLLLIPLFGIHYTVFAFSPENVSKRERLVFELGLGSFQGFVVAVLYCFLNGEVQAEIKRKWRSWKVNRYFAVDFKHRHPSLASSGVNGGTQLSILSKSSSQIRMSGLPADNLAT
Method: as §2

[5] = target: T5, rat PACAP receptor protein Type I-A (pRPR3-A) (Rattus norvegicus, UniProt P32215); assay: Intracellular cyclic AMP of rat PACAP receptor cDNA-introduced CHO cells, strain A12; type: cell-based; details: CHO strain A12, 37° C., 40 minutes, 0.5 mM IBMX, FIG. 43
T5 construct: pRPACAPR46 and pRPACAPR5 were recombined at the BamHI site to prepare pRPACAPR46-5 having a complete translation frame; expressed in transfected cells; host or cells: CHO cells, pRPR3-A (pRc/CMV); clone A12 for cAMP
T5 sequence (P32215 20-467 isoform P32215-5 limits assumed): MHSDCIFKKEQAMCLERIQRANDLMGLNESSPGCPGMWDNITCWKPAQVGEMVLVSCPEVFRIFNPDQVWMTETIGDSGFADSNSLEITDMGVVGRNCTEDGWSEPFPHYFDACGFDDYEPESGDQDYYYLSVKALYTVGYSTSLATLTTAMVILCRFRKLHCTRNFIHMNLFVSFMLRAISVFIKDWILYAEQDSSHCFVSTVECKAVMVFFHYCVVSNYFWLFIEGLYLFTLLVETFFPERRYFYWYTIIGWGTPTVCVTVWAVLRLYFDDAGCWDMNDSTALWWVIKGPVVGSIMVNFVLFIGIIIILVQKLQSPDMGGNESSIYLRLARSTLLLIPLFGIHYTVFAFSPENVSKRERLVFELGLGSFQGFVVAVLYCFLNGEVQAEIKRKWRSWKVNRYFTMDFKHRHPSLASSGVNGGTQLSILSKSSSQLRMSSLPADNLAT
Method: as §1

[6] = target: T3, Bovine PACAP receptor protein; assay: Intracellular inositol phosphate of bovine PACAP receptor cDNA-expressed CHO cells; type: cell-based; details: 37° C., 20 minutes, FIG. 37
Method: The pathway of signal transmission of inositol phosphate well known as the pathway of signal transmission together with cyclic AMP was examined. […] One hundred microliters of 20% perchloric acid was added thereto to stop the reaction, and intracellular inositol phosphate was extracted. The extract was neutralized with 1.5 M KOH. All inositol phosphate was separated from free inositol by the use of ion exchange chromatography (AGI-X8, Bio RAD). Thereafter, inositol phosphate was eluted with 1 M ammonium formate/0.1 M formic acid, and the amount of inositol phosphate was measured with a scintillation counter.

[7] = target: T3, Bovine PACAP receptor protein; assay: Competitive binding experiment, membrane fraction of bovine PACAP receptor cDNA (pBPR-T)-expressed CHO cells; details: 100 pM [125I]-PACAP27, 25° C., 75 minutes, FIG. 35
Method: The transformants (CHO cells) cultivated for 3 days after subculture were separated using 0.2 mM EDTA/phosphate buffer, and suspended in 10 mM sodium carbonate buffer supplemented with 1 mM EDTA, 0.5 mM phenylmethylsulfonyl fluoride (PMSA), 20 μg/ml leupeptin, 4 μg/ml E-64 and 1 μg/ml pepstatin. The suspended cells were disrupted with a Polytron homogenizer (Kinematica). The disrupted product was centrifuged with a high speed cooling centrifuge (CR26H, Roter RR18, Hitachi, Ltd.) at 3,000 rpm for 10 minutes to obtain a supernatant. The resulting supernatant was further ultracentrifuged with an ultracentrifuge (SCP70H, Roter RPZ35T, Hitachi, Ltd.) at 30,000 rpm for 60 minutes to obtain pellets. The resulting pellets were suspended in a buffer [20 mM Tris-HCl (pH 7.4), 0.25 M sucrose, 2 mM EDTa, 0.5 mM PMSF, 20 μg/ml leupeptin and 1 μg/ml pepstatin] to prepare a membrane fraction suspension.
Bound ligands were separated from free ligands through a glass fiber filter. […] The binding was examined with a a γ-ray counter. The dissociation constant and the maximum binding were examined by Scatchard plot analysis (FIG. 34).

[8] = target: T4, human PACAP receptor protein; assay: Intracellular cyclic AMP of human PACAP receptor protein-expressed CHO-K1 cells; type: cell-based
Method: After washing twice with Hank's buffer containing the culture buffer, 10 mM HEPES and 0.05% BSA, the CHO-K1 cells were cultivated in the above-mentioned buffer supplemented with 0.2 mM 3-isobutyl-1-methylxanthine at 37° C. for 60 minutes. […] After absorption of the buffer, the cells were washed twice with the culture buffer. Then, cAMP was extracted from the cells with 20% perchloric acid. After transfer to a 1.5-ml Eppendorf tube, the extract was centrifuged with a Tomy microcentrifuge at 12,000 rpm for 5 minutes, and the supernatant was neutralized with 1.5 N KOH/60 mM HEPES to prepare a cell eluted solution. The concentration of cyclic AMP was determined by the acetylation method of a cAMP assay system (Amersham). Under these determination conditions, when nothing was added, the amount of intracellular CAMP was 0.7 pmole/well.

[9] = 0.1 mM added, basal 0.7 pmole/well

Question: For “PACAP38: pituitary adenylate cyclase activating polypeptide consisting of 38 amino acid residues, SEQ ID NO: 46-NH2”, which “production of intracellular cyclic AMP” value [1] is on record?
Answer: promoted the production of intracellular cyclic AMP, depending on the concentrations

Question: What about the “reaction with purified PACAP receptor protein in competitive binding experiment” value [2] of the same substance?
Answer: reacting

Question: And the “concentration of intracellular cyclic AMP” value [3]?
Answer: increased depending on the concentrations

Question: And the “competition with [125I]-PACAP27” value [4]?
Answer: competed

Question: And the “production of intracellular cyclic AMP” value [5]?
Answer: promoted the production of intracellular cyclic AMP, depending on the concentrations

Question: What about the “concentration of inositol phosphate” value [6] of the same substance?
Answer: increased depending on the concentrations

Question: What about the “reactivity (competition with [125I]-PACAP27)” value [7] of the same substance?
Answer: high reactivity

Question: And the “accumulation of cyclic AMP” value [8, 9]?
Answer: about 21 pmoles/well

Question: And the “accumulation of cyclic AMP relative to the basal level” value [8, 9]?
Answer: about 30 times the basal level

Question: And the “concentration of intracellular cAMP” value ([8]; 37° C., 30 minutes, 0.2 mM 3-isobutyl-1-methylxanthine, FIG. 48)?
Answer: increased depending on the concentrations
